Legend:
E. coli CCARM1229 = type: cell-based, Escherichia coli; conditions: E. coli CCARM1229, antibiotics-tolerant; 37° C., 18 hours
Method: (§1) In order to evaluate the antimicrobial activity of the peptides prepared by the method of above 1, a minimal inhibitory concentration (MIC) value as the minimum concentration of a peptide, in which cells are not divided, was measured.
(§2) Specifically, the strains shown in Table 3 below were purchased, cultured in a medium having a constitutional composition suitable for each strain to a mid-log phase, and then diluted to a concentration of 2×10^4 cells/100 μl to prepare the product on a micro-titration plate (Nunc, USA). Then, PEP27, PEP27-1, PEP27-2 or PEP27-5 peptide synthesized in the above 1 was added to each well by serial dilution ½ times, followed by incubation at 37° C. for 18 hours.

E. coli ATCC25922 = type: cell-based, Escherichia coli; conditions: E. coli ATCC25922, Gram-negative; 37° C., 18 hours
Method: as §1, §2

S. aureus MW2 = conditions: S. aureus MW2, antibiotics-tolerant; 37° C., 18 hours
Method: as §1, §2
(§3) Specifically, subject strains were prepared by the method of above 2, and were treated with the antibiotics, that is, meropenem, ceftazidime, ceftriaxone or vancomycin, respectively, followed by determining MICs of the antibiotics.

S. aureus USA300 = conditions: S. aureus USA300, antibiotics-tolerant; 37° C., 18 hours
Method: as §1, §2, §3

P. aeruginosa ATCC27853 = conditions: P. aeruginosa ATCC27853, Gram-negative; 37° C., 18 hours
Method: as §1, §2, §3

S. aureus ATCC29213 = conditions: S. aureus ATCC29213, Gram-positive; 37° C., 18 hours
Method: as §1, §2, §3

S. aureus ATCC25923 = conditions: S. aureus ATCC25923, Gram-positive; 37° C., 18 hours
Method: as §1, §2, §3

Measured: Minimal inhibitory concentration

CC[C@H](C)[C@H](NC(=O)CN)C(=O)NCC(=O)N[C@@H](C)C(=O)N[C@H](C(=O)N[C@@H](CC(C)C)C(=O)N[C@@H](CCCCN)C(=O)N[C@H](C(=O)N[C@@H](CC(C)C)C(=O)N[C@H](C(=O)N[C@H](C(=O)NCC(=O)N[C@@H](CC(C)C)C(=O)N1CCC[C@H]1C(=O)N[C@@H](C)C(=O)N[C@@H](CC(C)C)C(=O)N[C@H](C(=O)N[C@@H](CO)C(=O)N[C@@H](Cc1c[nH]c2ccccc12)C(=O)N[C@H](C(=O)N[C@@H](CCCCN)C(=O)N[C@@H](CCCNC(=N)N)C(=O)N[C@@H](CCCCN)C(=O)N[C@@H](CCCNC(=N)N)C(=O)N[C@@H](CCC(N)=O)C(=O)N[C@@H](CCC(N)=O)C(N)=O)[C@@H](C)CC)[C@@H](C)CC)[C@@H](C)O)[C@@H](C)O)C(C)C)C(C)C [Melittin]
4 µM: S. aureus MW2
2 µM: E. coli CCARM1229 | E. coli ATCC25922 | S. aureus USA300 | P. aeruginosa ATCC27853 | S. aureus ATCC29213 | S. aureus ATCC25923
